Laboratory results: patent US11976068B2 (CHIMERIX, INC., priority 2015, dated 2024)

Tested on: CYP isozymes (CYP 1A2, 2B6, 2C8, 2C9, 2C19, 2D6 and 3A4)
Assay: CYP inhibition in pooled human liver microsomes, all isozymes
Details: pooled HLM

Cc1ccccc1CN1C(=O)C2=C(CCN(Cc3ccccc3)C2)N2CCN=C12 [ONC201, 7-benzyl-4-(2-methylbenzyl)-2,4,6,7,8,9-hexahydroimidazo [1,2-a]pyrido[3,4-e]pyrimidin-5(1H)-one]
time dependence of CYP inhibition: not significantly time-dependent
